Read-outs that look alike come from different tables or passages of the source.
How the values were obtained:
[1] = both, Kunming, mouse, in vivo, po
in vivo = conditions: both, Kunming, mouse, po

O=c1[nH]cc(F)c(=O)[nH]1 [Compound 5-FU, 5-fluorouracil]
LD50 [1]: 230 mg/kg
LD50 (in vivo): 230 mg/kg
